For the assay, the target named is D(2) dopamine receptor (Homo sapiens, UniProt P14416). The assay is described as follows: Agonist activity at human D2 receptor expressed in CHO cells by [35S]GTPgammaS binding assay. Type of assay: functional, cell-based. (In general: Binding of GTPγS marks nucleotide exchange on a G protein.)

Protein sequences, listed by entry. Tags and fused reporters are not part of them.
UniProt P14416, whole entry: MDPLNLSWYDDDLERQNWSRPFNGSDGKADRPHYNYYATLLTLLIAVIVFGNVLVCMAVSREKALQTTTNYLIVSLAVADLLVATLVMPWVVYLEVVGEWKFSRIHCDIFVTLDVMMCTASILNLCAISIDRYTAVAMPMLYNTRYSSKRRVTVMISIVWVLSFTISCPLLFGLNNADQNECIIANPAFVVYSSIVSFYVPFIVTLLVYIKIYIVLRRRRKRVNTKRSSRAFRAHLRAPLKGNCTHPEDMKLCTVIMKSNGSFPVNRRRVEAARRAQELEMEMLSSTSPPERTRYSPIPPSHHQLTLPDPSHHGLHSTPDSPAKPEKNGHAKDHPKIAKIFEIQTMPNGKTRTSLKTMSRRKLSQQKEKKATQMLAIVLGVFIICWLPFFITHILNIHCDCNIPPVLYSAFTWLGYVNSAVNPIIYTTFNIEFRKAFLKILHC

The structures appear in SMILES notation.

For orientation: EC50 means the concentration at which the effect is half-maximal. A low value points to a more potent agent. With `CCCN1CCC[C@@H](c2cccc(O)c2)C1` [PRECLAMOL], the midpoint of the response, the EC50, lay at 0.163 µM.

(Values after ChEMBL document CHEMBL3739358 (J Med Chem, 2015).)
